The source of these data is BindingDB's records for doi:10.1021/jm0208119 (Westfälische Wilhelms-Universität Münster, 2002).

The experiment has as its target T1, Histone deacetylase 2b (Zea mays, UniProt Q94F81).
T1 sequence (Q94F81 whole entry): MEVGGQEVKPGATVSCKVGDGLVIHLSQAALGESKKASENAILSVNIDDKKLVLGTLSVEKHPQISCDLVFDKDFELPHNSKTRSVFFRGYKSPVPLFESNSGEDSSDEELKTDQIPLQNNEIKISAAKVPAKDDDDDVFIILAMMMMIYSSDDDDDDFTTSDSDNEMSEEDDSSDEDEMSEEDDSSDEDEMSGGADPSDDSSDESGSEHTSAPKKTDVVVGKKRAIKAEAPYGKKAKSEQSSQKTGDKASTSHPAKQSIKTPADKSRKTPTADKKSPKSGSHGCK
Kind of experiment: Inhibition of in vitro enzyme activity measured in a highly purified maize Histone deacetylase 2 preparation.

SMILES strings stand for the structures.

Usually IC50 stands for the concentration at which inhibition is half-maximal. A higher IC50 goes with weaker potency in that assay. `CC(=CC(C)C=CC(=O)NO)C(=O)c1ccc(N(C)C)cc1` (stereo unspecified) displayed an IC50 of 3 nM.
